Patent publication US20130273052A1 (Alexion, published 2013)

Chains of the proteins cited; added tags and fusions are not shown. A line that says so, or that is headed by a name, gives the form on record, which may keep a tag or linker.
human complement component C5 protein, one chain, as listed by the source, chain 2 of 2: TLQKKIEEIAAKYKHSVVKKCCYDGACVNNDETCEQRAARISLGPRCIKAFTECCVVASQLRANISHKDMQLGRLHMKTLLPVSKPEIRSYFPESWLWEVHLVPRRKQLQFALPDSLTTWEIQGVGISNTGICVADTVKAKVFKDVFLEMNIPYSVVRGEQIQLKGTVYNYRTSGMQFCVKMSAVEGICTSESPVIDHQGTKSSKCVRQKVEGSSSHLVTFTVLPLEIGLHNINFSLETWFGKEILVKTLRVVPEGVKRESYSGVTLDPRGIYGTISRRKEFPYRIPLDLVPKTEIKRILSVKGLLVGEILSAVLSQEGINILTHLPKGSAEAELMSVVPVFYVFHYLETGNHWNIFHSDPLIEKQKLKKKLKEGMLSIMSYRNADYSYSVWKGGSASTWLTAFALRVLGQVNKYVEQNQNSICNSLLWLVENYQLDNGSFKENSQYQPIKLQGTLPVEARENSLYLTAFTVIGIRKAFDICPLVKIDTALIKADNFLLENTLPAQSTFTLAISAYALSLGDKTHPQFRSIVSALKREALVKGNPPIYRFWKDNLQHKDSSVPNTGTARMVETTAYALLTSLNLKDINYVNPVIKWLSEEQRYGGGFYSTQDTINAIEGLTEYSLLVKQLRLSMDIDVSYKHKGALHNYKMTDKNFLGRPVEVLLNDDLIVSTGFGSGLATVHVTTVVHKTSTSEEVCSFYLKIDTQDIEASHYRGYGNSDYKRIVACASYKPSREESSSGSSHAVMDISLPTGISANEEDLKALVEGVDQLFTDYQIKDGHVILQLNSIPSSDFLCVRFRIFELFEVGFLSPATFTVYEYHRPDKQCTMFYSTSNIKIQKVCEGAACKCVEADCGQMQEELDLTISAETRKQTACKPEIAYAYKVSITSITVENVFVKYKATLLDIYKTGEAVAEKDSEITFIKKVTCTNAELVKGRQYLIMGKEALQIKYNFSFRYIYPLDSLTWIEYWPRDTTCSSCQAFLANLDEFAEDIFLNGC

How the values were obtained:
[1] = target: human complement component C5 protein (human); test: Biacore 3000 SPR, under similar conditions to R38Q scFv (scFv immobilised, C5 as analyte)
[2] = target: human complement component C5 protein (human); test: cell-based or functional assay

Kd [1]: 390 µM
B1: pexelizumab (scFv, V domains shown)
VH: QVQLVQSGAEVKKPGASVKVSCKASGYIFSNYWIQWVRQAPGQGLEWMGEILPGSGSTEYTENFKDRVTMTRDTSTSTVYMELSSLRSEDTAVYYCARYFFGSSPNWYFDVWGQGTLVTVSS
VL: DIQMTQSPSSLSASVGDRVTITCGASENIYGALNWYQRKPGKAPKLLIYGATNLADGVPSRFSGSGSGTDFTLTISSLQPEDFATYYCQNVLNTPLTFGQGTKVEIK
inhibition of chicken erythrocyte hemolysis in about 10% normal human serum (absorbance at 415 nm), IC50 [2]: ~2 µg/mL
